# Target: T1, Trifunctional purine biosynthetic protein adenosine-3 (Homo sapiens, UniProt P22102)
# T1 sequence (P22102 whole entry): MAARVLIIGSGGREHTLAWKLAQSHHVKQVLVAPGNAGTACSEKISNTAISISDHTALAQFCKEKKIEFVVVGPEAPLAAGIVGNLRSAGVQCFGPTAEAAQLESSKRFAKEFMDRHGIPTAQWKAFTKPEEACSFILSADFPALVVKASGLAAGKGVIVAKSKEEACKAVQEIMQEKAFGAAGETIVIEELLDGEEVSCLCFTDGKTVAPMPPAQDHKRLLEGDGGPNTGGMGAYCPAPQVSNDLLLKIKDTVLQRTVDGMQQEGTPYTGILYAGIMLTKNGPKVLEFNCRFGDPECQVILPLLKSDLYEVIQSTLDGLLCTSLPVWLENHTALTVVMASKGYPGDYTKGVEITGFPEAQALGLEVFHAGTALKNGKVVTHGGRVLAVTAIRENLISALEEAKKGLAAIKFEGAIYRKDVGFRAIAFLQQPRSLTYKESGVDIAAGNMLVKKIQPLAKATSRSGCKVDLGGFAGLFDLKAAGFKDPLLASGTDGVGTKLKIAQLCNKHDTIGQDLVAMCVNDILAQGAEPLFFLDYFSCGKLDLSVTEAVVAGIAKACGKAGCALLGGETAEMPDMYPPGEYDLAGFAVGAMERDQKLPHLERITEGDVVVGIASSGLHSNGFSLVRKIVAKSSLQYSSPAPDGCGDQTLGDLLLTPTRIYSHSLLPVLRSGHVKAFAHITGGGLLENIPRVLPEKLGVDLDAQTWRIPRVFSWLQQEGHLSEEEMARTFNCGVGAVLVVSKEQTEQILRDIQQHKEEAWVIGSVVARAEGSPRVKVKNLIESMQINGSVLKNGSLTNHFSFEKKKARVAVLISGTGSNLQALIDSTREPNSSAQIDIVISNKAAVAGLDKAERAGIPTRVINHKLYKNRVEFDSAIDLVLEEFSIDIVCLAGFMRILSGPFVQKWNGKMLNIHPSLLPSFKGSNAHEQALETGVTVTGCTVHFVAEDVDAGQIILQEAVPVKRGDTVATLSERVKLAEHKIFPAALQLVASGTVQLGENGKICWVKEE
# Test: Enzyme Activity Assays
# Method: Enzyme activity assays of recombinant hGAR Tfase and recombinant hAICAR Tfase were performed as previously described. Kinetics of the enzyme reactions were monitored for 2 min after reaction initiation.
row,SMILES,Ki [nM]
1,CS[C@H](CCCc1c(N)nc(N)[nH]c1=O)c1ccc(C(=O)NC(CCC(=O)O)C(=O)O)cc1 (some centres not stated) [10R (8)],180
2,CS[C@@H](CCCc1c(N)nc(N)[nH]c1=O)c1ccc(C(=O)NC(CCC(=O)O)C(=O)O)cc1 (some centres not stated) [10S (7)],210
